Earlier results, collected in publication PMC7008171 (Frontiers in Pharmacology, 2020).
Marks after values point to notes of the source that are not given here.

Conditions: model input, cited from earlier work

## Cc1nc2n(c(=O)c1CCN1CCC(c3noc4cc(F)ccc34)CC1)CCCC2 [risperidone]
Ref Drugbank
  log P (octanol/water partition coefficient): 3.04 ^a
Ref Pubchem
  pKa1: 8.24
